Results on one molecule are retold here after patent publication US20240408093A1, “HETEROBIFUNCTIONAL COMPOUNDS AND THEIR USE IN TREATING DISEASE” (HALDA THERAPEUTICS OPCO, INC., priority 2022, published 2024).

Chains of the proteins cited; added tags and fusions are not shown. Lines headed by an entry give the natural chain unless they say otherwise; changes in a name come on top. Residues count along the entry.
UniProt P00533, 669-1011 limits assumed: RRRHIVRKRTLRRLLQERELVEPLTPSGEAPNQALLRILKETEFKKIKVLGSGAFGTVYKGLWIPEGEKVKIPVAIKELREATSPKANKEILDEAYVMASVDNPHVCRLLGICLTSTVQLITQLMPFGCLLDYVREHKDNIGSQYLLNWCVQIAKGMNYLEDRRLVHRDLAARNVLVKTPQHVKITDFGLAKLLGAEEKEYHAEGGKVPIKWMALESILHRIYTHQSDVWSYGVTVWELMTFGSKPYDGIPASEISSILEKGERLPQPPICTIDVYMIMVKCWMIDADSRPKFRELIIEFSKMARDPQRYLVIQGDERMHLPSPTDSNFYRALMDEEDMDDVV
UniProt P00533, 669-1011 T790M/L858R limits assumed: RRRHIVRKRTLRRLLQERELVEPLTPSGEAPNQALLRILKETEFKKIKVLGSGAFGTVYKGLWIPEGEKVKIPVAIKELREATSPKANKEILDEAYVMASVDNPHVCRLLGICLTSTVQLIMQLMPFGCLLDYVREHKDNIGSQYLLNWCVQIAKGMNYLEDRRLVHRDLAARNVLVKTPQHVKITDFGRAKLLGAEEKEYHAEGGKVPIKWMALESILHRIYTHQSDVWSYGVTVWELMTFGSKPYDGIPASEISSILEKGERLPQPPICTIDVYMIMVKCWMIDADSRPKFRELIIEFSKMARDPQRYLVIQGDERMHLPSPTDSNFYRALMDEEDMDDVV
UniProt P00533, 696-1022 T790M/L858R limits assumed: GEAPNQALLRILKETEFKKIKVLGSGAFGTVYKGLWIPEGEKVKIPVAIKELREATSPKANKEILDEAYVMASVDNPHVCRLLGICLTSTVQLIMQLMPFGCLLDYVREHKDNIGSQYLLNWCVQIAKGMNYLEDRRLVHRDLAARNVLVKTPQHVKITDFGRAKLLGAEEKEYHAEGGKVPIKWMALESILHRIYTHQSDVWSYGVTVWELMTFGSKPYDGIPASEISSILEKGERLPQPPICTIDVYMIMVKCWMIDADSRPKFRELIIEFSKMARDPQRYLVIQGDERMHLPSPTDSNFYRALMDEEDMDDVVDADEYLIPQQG

Molecules are shown by their SMILES. Where two headings read alike, the source gives them in different places.

The target of experiment [1] is EGFR T790M/L858R kinase domain (Homo sapiens, UniProt P00533, L858R/T790M). Put plainly: EGFR cellular target engagement assay (HEK293 cells stable for EGFR T790M, L858R). The settings on record: read-out: TE50, 6 hours. The method, then:
HEK293 cells were cultured in DMEM (Gibco 11995), supplemented with 10% Heat-inactivated FBS (Gibco A38400-01) and 1% Penicillin/Streptomycin (Gibco 15140-122) at 37° C. with 5% CO2 in a humidified tissue culture incubator. Cells were made stable for EGFR (amino acids 696-1022, T790M, L858R) by lentiviral transduction, followed by selection with 1 μg/ml Puromycin Dihydrochloride (Thermo A1113803). Cells were seeded at 30,000 cells/ml in 0.1 ml of complete media in Poly-D-lysine-treated 96-well plates and incubated overnight. Cells were treated with increasing concentrations of compound and let incubate at 37C and 5% CO2 for 6 hours, after which media was aspirated, washed with 1×PBS and cells were lysed in RIPA Lysis and Extraction Buffer (Thermo 89901) supplemented with 5 mM MgCl2, Protease and Phosphatase inhibitor cocktail (Thermo 1861281), and Universal Nuclease (Thermo 88700). Plates with RIPA were shaken at 4° C. at 600 rpm for 15 min. After shaking samples, they were collected and spun down at 21,000 g for 15 min at 4° C. Following centrifugation, […] of lysate was added to Laemmli Sample Buffer (Bio-Rad 1610747) plus 10% beta-mercaptoethanol, boiled for 15 minutes at 65° C. and loaded onto 4-20% Mini-PROTEAN TGX™ Precast Protein Gels (Bio-Rad). Protein was transferred to a nitrocellulose membrane (Thermo LC2000) using the iBlot 2 Dry Blotting System (Thermo). […]

Experiment [2] has as its target EGFR T790M, L858R (amino acids 669-1011) (Homo sapiens, UniProt P00533, L858R/T790M). The experiment in a line: KdELECT binding assay, EGFR T790M, L858R. The settings on record: read-out: T790M/L858R Kd. The protocol: (§1) Exemplary compounds were tested for ability to bind to EGFR WT (amino acids 669-1011, Accession Number NP_005219.2) or EGFR T790M, L858R (amino acids 669-1011 Accession Number NP_005219.2) expressed from bacteria or mammalian cells, respectively. Compounds were tested using the KdELECT assay at Eurofins Discovery.
(§2) Kinase-tagged T7 phage strains were prepared in an E. coli host derived from the BL21 strain. E. coli were grown to log-phase and infected with T7 phage and incubated with shaking at 32° C. until lysis. The lysates were centrifuged and filtered to remove cell debris. The remaining kinases were produced in HEK-293 cells and subsequently tagged with DNA for qPCR detection. Streptavidin-coated magnetic beads were treated with biotinylated small molecule ligands for 30 minutes at room temperature to generate affinity resins for kinase assays. The liganded beads were blocked with excess biotin and washed with blocking buffer (SeaBlock (Pierce), 1% BSA, 0.05% Tween 20, 1 mM DTT) to remove unbound ligand and to reduce non-specific binding. Binding reactions were assembled by combining kinases, liganded affinity beads, and test compounds in 1x binding buffer (20% SeaBlock, 0.17× PBS, 0.05% Tween 20, 6 mM DTT). Test compounds were prepared as 111× stocks in 100% DMSO. […] The kinase concentration in the eluates was measured by qPCR.

Experiment [3] relates to HeLa cells (ATCC CCL-2). The experiment in a line: Cellular growth inhibition assay, HeLa cells (Example 16). Conditions: read-out: HeLa (GI50), 72 hours, CellTiter-Glo 2.0. The method, then:
(§3) Exemplary compounds were tested for ability to inhibit the proliferation of HEK293 cells (ATCC CRL-1573) and HeLa cells (ATCC CCL-2).
(§4) HEK293 and HeLa cells were cultured in DMEM (Gibco 11995), supplemented with 10% Heat-inactivated FBS (Gibco A38400-01) and 1% Penicillin/Streptomycin (Gibco 15140-122) at 37° C. with 5% CO2 in a humidified tissue culture incubator. Cells were seeded at 500 cells/well in 384-well, Poly-D-lysine-treated blackplates (Perkin Elmer 6007710) in 25 μL media lacking selection for 18-24 hours. Plates were spun at 300 g for 30 seconds and stored in the incubator overnight. After 24 hours, a 25 μL aliquot of compound-containing medium was added in each well, at a final top concentration of 10 μM test compound, with 3-fold dilutions, using DMSO alone as a negative control. Plates were then spun at 300×g for 3 minutes again and cultured at 37° C. with 5% CO2. After 72 hours, cell viability was quantified with CellTiter-Glo 2.0 (Promega). After equilibrating cell plates at room temperature for 30 minutes, 25 μL CellTiter-Glo 2.0 reagent was dispensed into each well. Plates were mixed on a shaker for 2 minutes at 500 rpm, followed by a 10-minute incubation at room temperature. Luminescence readings were measured with an EnVision Plate Reader (Perkin Elmer). Data was normalized to DMSO treated cell wells. […]
(In general: ATP-based viability assays read luminescence as a measure of living cells.)

Experiment [4] relates to HEK293 cells (ATCC CRL-1573). Put plainly: Cellular growth inhibition assay, HEK293 cells (Example 16). The settings on record: read-out: HEK293 (GI50), 72 hours, CellTiter-Glo 2.0. The protocol: as §3, §4
The test system of experiment [5] is CCNK. The experiment in a line: Payload release assay (DC50 readout), CCNK degradation in the presence of recombinant target protein. The settings on record: II-series and V-4 (CCNK readout inferred). The protocol:
Exemplary compounds were tested for ability to cause degradation of CCNK or GSPT1 in the presence of recombinant target protein.
HEK293 LgBiT/GSPT1 HiBiT CRISPR Knock-in cells (Promega) were cultured in DMEM (Gibco 11995), supplemented with 10% Heat-inactivated FBS (Gibco A38400-01) and 1% Penicillin/Streptomycin (Gibco 15140-122) and 200 Vg/ml Hygromycin B (Gibco 10-687-010) at 37° C. with 5% CO2 in a humidified tissue culture incubator. HEK293 LgBiT/CCNK HiBiT cells (in-house, described above) were cultured in DMEM (Gibco 11995), supplemented with 10% Heat-inactivated FBS (Gibco A38400-01) and 1% Penicillin/Streptomycin (Gibco 15140-122) 200 Vg/ml Hygromycin B (Gibco 10-687-010), and 1 Vg/ml Puromycin Dihydrochloride (Thermo A1113803) at 37° C. with 5% CO2 in a humidified tissue culture incubator. Cells were seeded (1000 cells/well for HEK293 LgBiT/GSPT1 HiBiT cells or 3000 cells/well for HEK293 LgBiT/CCNK HiBiT cells) 384-well, tissue culture-treated white plates (Perkin Elmer 6007680) in 10 μL media lacking selection for 18-24 hours. Plates were spun at 300 g for 30 seconds and stored in the incubator overnight. After 24 hours, a 5 μL aliquot of recombinant target protein (final concentration of either 5 μM KRAS amino acids 1-169, C51S, C80L, C118S, G12C or 3 μM EGFR amino acids 696-1022 or 3 μM EGFR amino acids 696-1022, T790M, L858R) was added to wells, followed immediately by a 5 μL aliquot of 4× compound-containing medium supplemented with Endurazine Substrate (Promega N2570) was added in each well, at a final top concentration of 10 μM test compound and 0.5× Endurazine, with 4-fold dilutions, using DMSO alone as a negative control. Plates were then spun at 300×g for 3 minutes again and cultured at 37° C. with 5% CO2. After 6 hours the plate was read on Envision MultiMode Plate Reader 2105 (Perkin Elmer) to measure luminescence signal. Data was normalized to DMSO treated cell wells. A four-parameter non-linear regression curve fit was applied to dose-response data in Prism to determine the half maximal growth inhibitory concentration (GI50) of each compound.

Experiment [6] addresses EGFR WT (amino acids 669-1011) (Homo sapiens, UniProt P00533). Put plainly: KdELECT binding assay, EGFR WT. The settings on record: read-out: WT Kd. The method, then:
as §1, §2

Regarding `C=C(CN1CCN(c2nc(NCc3nc4cc(C)ccc4[nH]3)n3ncc(Br)c3n2)CC1)C(=O)N[C@@H]1CN(c2nc(Nc3cn(C)nc3OC)c3ncn(C)c3n2)C[C@H]1F`, in experiment [1], the EC50 is less than 250 nM. The Kd in experiment [2] and in experiment [6] was 50 to 500 nM throughout. For the same molecule, the GI50 in experiment [3] and in experiment [4] was less than 500 nM each time. For the same molecule, the DC50 in experiment [5] (read-out: DC50 at 0 μM EGFR T790M L858R, 0 μM recombinant EGFR T790M L858R) was less than 250 nM; in experiment [5] (read-out: DC50 at 0 μM EGFR WT, 0 μM recombinant EGFR WT), 250 to 5000 nM; in experiment [5] (read-out: DC50 at 3 μM EGFR T790M L858R, 3 μM recombinant EGFR T790M L858R), less than 250 nM; in experiment [5] (read-out: DC50 at 3 μM EGFR WT, 3 μM recombinant EGFR WT), less than 250 nM.

A word on the GI50: it is the concentration at which growth is held to half of that of the control. A word on the DC50: it is the concentration giving 50% degradation.
